The values that follow come from patent US20220411487A1 (Regeneron, published 2022).

The chains behind the UniProt entries cited, without tags or fusion partners. A line that says so, or that is headed by a name, gives the form on record, which may keep a tag or linker.
UniProt Q8IU80, other isoform, or with tags, fused parts or gaps S762A S762A: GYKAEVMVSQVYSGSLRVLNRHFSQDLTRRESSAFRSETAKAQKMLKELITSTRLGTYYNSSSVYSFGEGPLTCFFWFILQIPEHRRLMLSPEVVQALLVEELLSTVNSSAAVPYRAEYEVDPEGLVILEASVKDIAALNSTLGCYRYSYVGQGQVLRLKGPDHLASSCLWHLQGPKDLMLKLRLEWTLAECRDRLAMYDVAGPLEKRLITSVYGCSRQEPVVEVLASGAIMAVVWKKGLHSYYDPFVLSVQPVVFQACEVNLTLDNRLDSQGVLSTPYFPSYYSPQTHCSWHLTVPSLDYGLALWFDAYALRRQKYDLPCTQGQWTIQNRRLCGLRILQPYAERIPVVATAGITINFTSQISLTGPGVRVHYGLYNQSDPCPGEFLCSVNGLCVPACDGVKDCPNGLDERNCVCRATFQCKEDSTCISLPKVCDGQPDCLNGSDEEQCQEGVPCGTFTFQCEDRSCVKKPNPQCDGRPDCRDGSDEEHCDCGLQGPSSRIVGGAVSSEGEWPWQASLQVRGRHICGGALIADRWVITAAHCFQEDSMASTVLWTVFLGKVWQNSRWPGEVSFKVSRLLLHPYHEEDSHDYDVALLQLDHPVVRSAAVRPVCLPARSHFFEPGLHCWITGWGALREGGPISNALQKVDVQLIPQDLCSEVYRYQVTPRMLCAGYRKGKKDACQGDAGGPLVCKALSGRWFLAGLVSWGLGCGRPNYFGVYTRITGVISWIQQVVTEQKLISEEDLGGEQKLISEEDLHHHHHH

Experiment [1] concerns the target T1, full length cynomolgous monkey TMPRSS6 on HEK293 cells (HEK293/mfTMPRSS6) (cynomolgous monkey/Macaca fascicularis, UniProt Q8IU80 10-811 (human entry)).
T1 chain: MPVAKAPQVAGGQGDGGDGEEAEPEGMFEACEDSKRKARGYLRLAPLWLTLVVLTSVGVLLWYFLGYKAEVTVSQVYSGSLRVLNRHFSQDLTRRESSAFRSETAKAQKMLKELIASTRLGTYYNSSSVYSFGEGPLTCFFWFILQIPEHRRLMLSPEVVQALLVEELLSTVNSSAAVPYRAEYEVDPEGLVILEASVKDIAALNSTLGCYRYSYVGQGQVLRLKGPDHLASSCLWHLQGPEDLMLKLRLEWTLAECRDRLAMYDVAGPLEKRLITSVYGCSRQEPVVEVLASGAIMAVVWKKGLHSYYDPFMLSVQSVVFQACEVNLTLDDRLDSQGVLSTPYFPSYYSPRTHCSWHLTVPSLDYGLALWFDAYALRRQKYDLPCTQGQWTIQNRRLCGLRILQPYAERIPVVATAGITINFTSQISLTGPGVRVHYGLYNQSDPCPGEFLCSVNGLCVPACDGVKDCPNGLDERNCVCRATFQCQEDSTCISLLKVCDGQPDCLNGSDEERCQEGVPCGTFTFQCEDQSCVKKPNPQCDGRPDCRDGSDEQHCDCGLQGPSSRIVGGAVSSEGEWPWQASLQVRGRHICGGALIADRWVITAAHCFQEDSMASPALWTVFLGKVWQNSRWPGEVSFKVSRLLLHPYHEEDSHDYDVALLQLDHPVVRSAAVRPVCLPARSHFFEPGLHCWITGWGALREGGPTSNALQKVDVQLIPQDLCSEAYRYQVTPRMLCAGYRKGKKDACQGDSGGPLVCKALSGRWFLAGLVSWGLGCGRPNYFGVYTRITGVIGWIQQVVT
The experiment is described as follows: cell-based or functional assay.

A further experiment deals with T2, mfTMPRSS6_S751A-MMH (Macaca fascicularis, UniProt Q8IU80 77-811 (human entry)).
T2 construct: also called REGN5977; Macaca fascicularis TMPRSS6 extracellular domain with a S751A mutation and a C-terminal myc-myc-hexahistidine tag
T2 chain: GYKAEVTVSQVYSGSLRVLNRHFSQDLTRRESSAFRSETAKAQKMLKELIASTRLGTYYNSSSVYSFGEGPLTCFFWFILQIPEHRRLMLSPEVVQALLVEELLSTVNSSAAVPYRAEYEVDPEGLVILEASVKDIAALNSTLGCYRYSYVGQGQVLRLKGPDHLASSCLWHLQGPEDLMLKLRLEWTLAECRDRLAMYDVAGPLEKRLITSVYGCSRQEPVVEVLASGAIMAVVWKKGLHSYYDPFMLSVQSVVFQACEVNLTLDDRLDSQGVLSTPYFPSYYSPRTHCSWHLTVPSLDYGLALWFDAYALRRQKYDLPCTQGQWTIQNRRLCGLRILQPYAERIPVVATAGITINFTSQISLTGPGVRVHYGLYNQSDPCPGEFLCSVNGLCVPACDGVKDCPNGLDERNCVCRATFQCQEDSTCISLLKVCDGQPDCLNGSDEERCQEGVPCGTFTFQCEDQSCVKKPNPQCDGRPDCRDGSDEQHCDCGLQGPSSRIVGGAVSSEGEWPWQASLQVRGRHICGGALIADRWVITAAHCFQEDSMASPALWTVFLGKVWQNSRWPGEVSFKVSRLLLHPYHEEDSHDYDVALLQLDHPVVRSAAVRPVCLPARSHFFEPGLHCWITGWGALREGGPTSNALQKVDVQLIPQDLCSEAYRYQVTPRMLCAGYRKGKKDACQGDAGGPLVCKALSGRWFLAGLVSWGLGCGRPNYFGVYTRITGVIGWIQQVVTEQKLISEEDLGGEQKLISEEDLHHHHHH
Description: SPR, mAb captured via anti-hFc, 25 C. As for the experimental part: (§1) The equilibrium dissociation constant (KD) for TMPRSS6 binding to different TMPRSS6 monoclonal antibodies (mAbs) was determined using a real-time surface plasmon resonance biosensor using a Biacore 4000 instrument. All binding studies were performed in 10 mM HEPES, 150 mM NaCl, 3 mM EDTA, and 0.05% v/v Surfactant Tween-20, pH 7.4 (HBS-ET) running buffer at 25° C. and 37° C. The Biacore CM5 sensor chip surface was first derivatized by amine coupling with a human Fc specific mouse mAb to capture different TMPRSS6 mAbs. […] Different concentrations (100 nM to 3.7 nM, 3-fold serial dilution) of the TMPRSS6 reagent proteins prepared in HBS-EP running buffer were injected over the TMPRSS6 mAb captured surface for 150 seconds at a flow rate of 30 μL/min and their dissociation in HBS-ET running buffer was monitored for 10 minutes. At the end of each cycle, the TMPRSS6 mAb captured surface was regenerated using a 12 second injection of 20 mM phosphoric acid.
(§2) The association rate (kₐ) and dissociation rate (kd) were determined by fitting the real-time binding sensorgrams to a 1:1 binding model with mass transport limitation using Scrubber 2.0 (BioLogic Software) curve-fitting software. Binding dissociation equilibrium constant (KD) and dissociative half-life (t½) were calculated from the kinetic rates as: […]
On the technique in general: Surface plasmon resonance follows binding to a sensor surface in real time, without labels.

A further experiment has as its target T3, hTMPRSS6_S762A-MMH (human, UniProt Q8IU80).
T3 construct: also called REGN5330; human TMPRSS6_S762A-MMH
The experiment is described as follows: SPR, mAb captured via anti-hFc, 25 C. On the procedure: as §1, §2

B1: REGN7973 (antibody, human IgG4 S228P, kappa, V domains shown)
VH: EVQLVESGGGLVKPGGSLRLSCAASGFTFSNAWMSWVRQAPGKGLEWVGRIKSKTDSGTTDYAAPVKGRFTISRDDSKNTLYLQMNSLKTEDTAVYYCTTVDNDFWSGYYNWFDPWGQGTLVTVSS
VL: [gap - about 100 residues]
notes: fully human; human IgG4 Fc with hinge S108P; also called mAb37777
Consider B1, for which, in experiment [1], the “% inhibition, HEK293 bioassay, overnight pre-incubation 37 C” value was 42% and the “IC50, HEK293 bioassay, overnight pre-incubation 37 C” value is more than 10 nM. In the experiment with mfTMPRSS6_S751A-MMH, the “100 nM Ag Bound” value was found to be 132 RU; the equilibrium dissociation constant (Kd) (as a rule, a measure of binding affinity in units of concentration) worked out at 2.37 nM; the off-rate (koff) (in general, the rate constant with which the complex falls apart) was 0.000514 s⁻¹; the kon (usually a measure of how fast the partners come together) turned out to be 217000 M⁻¹ s⁻¹. The t½ – broadly, how long it takes for the measured level to halve – with mfTMPRSS6_S751A-MMH is 22 min. In addition, in the experiment with hTMPRSS6_S762A-MMH, the “100 nM Ag Bound” value came to 134 RU, the Kd was 0.626 nM, the koff was determined as 0.000157 s⁻¹ and the kon turned out to be 252000 M⁻¹ s⁻¹. The molecule also showed a t½ with hTMPRSS6_S762A-MMH of 73 min.
